Experiments:
[1] = biological target: K35N transthyretin (UniProt P02766); test: SEC; size-exclusion chromatography at 2.0 M Gdm.HCl (pretransition region)
[2] = biological target: K35N transthyretin (UniProt P02766); test: AUC; sedimentation velocity, 15 uM TTR, after 96 h in 50 mM sodium phosphate (pH 7.4 in the tables, pH 7.0 in the methods), 0.1 M KCl, […] urea; 25 C, 48,000 rpm; tetramer, monomer and higher-order oligomers
[3] = biological target: K35N transthyretin (UniProt P02766); test: AUC; sedimentation velocity, 5 uM TTR tetramer, after 96 h in 50 mM sodium phosphate (pH 7.4 in the tables, pH 7.0 in the methods), 0.1 M KCl, […] urea; 25 C, 48,000 rpm; tetramer, monomer and higher-order oligomers
[4] = biological target: K35T transthyretin (UniProt P02766); test: SEC; size-exclusion chromatography at 2.0 M Gdm.HCl (pretransition region)
[5] = biological target: K35T transthyretin (UniProt P02766); test: AUC; sedimentation velocity, 15 uM TTR, after 96 h in 50 mM sodium phosphate (pH 7.4 in the tables, pH 7.0 in the methods), 0.1 M KCl, […] urea; 25 C, 48,000 rpm; tetramer, monomer and higher-order oligomers
[6] = biological target: K35T transthyretin (UniProt P02766); test: AUC; sedimentation velocity, 5 uM TTR tetramer, after 96 h in 50 mM sodium phosphate (pH 7.4 in the tables, pH 7.0 in the methods), 0.1 M KCl, […] urea; 25 C, 48,000 rpm; tetramer, monomer and higher-order oligomers

stoichiometry N [1] | percent higher-order oligomers [2] [%] | percent monomer [2] [%] | percent tetramer [2] [%] | stoichiometry N [2] | percent higher-order oligomers [3] [%] | percent monomer [3] [%] | percent tetramer [3] [%] | stoichiometry N [3] | stoichiometry N [4] | percent higher-order oligomers [5] [%] | percent monomer [5] [%] | percent tetramer [5] [%] | stoichiometry N [5] | percent higher-order oligomers [6] [%] | percent monomer [6] [%] | percent tetramer [6] [%] | stoichiometry N [6] | Substance
4 | 27.1 | 9.2 | 63.7 | 4 | 26.2 | 15.9 | 57.9 | 4 |  |  |  |  |  |  |  |  |  | K35N transthyretin (from UniProt P02766 21-127) (natural protein)
 |  |  |  |  |  |  |  |  | 4 | 41.8 | 12.2 | 46 | 4 | 36.2 | 20.1 | 43.7 | 4 | K35T transthyretin (from UniProt P02766 21-127) (natural protein)

Reference: article PMC8406001
